Broadly, the IC50 is the midpoint of a concentration-inhibition curve. Low values mean inhibition by little substance, high ones a need for much substance.

Sequences of proteins named here, by UniProt entry; tags and fusion partners are left off.
UniProt Q15562, whole entry, species assumed: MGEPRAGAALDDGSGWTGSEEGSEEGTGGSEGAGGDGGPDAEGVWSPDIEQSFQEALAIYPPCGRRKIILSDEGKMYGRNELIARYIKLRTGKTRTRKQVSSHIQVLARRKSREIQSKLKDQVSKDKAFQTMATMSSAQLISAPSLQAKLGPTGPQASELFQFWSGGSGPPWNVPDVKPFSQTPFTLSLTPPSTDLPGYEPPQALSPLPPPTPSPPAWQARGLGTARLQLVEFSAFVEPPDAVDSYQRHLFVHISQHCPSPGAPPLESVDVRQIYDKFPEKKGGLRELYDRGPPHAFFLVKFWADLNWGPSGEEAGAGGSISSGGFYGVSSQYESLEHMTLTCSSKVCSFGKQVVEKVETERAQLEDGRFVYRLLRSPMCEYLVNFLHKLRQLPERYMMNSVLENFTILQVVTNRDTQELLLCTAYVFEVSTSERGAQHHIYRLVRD
UniProt Q99594, whole entry, species assumed: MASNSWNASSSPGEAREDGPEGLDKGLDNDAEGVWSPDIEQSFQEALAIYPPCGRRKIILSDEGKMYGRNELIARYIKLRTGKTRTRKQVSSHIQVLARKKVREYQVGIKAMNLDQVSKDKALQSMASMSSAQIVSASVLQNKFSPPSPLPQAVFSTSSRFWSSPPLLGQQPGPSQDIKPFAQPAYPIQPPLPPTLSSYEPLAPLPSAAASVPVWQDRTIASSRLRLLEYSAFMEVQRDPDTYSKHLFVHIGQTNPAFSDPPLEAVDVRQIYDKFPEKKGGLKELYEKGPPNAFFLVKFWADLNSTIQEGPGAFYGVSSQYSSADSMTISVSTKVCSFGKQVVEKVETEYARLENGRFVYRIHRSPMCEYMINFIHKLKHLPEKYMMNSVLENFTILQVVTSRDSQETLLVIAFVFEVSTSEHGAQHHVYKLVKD

Structures can show the parent of a compound that is named as a salt.

In patent US12110276B2 (Genentech, Inc., priority 2021, dated 2024) one finds IC50 data, which are given here for four compounds.

The target in one test is TEAD2 (Homo sapiens (Human), UniProt Q15562).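 Also: TR-FRET competition assay with His-tagged TEAD protein and a biotinylated lipid pocket probe, compound pre-incubated 30 min or 4 h at room temperature, displacement lowers signal.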
Another test has as its target TEAD3 (Homo sapiens (Human), UniProt Q99594). Kind of test: TR-FRET lipid pocket probe competition assay (Lipid HTRF), TEAD3. To be noted: 4 hours pre-incubation. The format is binding.

Consider `C=C(F)C(=O)N1CC(c2nn(-c3ccc(S(F)(F)(F)(F)F)cc3)c3nccc([C@H](O)CO)c23)C1` [Compound 59, (S)-1-(3-(4-(1,2-dihydroxyethyl)-1-(4-(pentafluoro-λ^6-sulfanyl)phenyl)-1H-pyrazolo[3,4-b]pyridin-3-yl)azetidin-1-yl)-2-fluoroprop-2-en-1-one], for which 0.033 µM corresponded to half-maximal inhibition at TEAD2 (IC50).

On TEAD3, `C=CC(=O)NCc1nn(-c2ccc(OC(F)(F)F)cc2)c2nccc([C@H](O)COC(=O)CN)c12` [Compound 145, (S)-2-(3-(Acrylamidomethyl)-1-(4-(trifluoromethoxy)phenyl)-1H-pyrazolo[3,4-b]pyridin-4-yl)-2-hydroxyethyl 2-aminoacetate formate] yielded an IC50 of 5.5 µM.

Turning to `C=CC(=O)NCc1nn(-c2ccc(OC(F)(F)F)cc2)c2nccc([C@H](O)COC(C)=O)c12` [Compound 146, (S)-2-(3-(Acrylamidomethyl)-1-(4-(trifluoromethoxy)phenyl)-1H-pyrazolo[3,4-b]pyridin-4-yl)-2-hydroxyethyl acetate], at TEAD3, the concentration for half-maximal inhibition (IC50) stood at 2.8 µM.

The compound `C=CC(=O)NCc1nn(-c2ccc(OC(F)(F)F)cc2)c2nccc([C@H](O)COP(=O)(O)O)c12` [Compound 147, (S)-2-(3-(Acrylamidomethyl)-1-(4-(trifluoromethoxy)phenyl)-1H-pyrazolo[3,4-b]pyridin-4-yl)-2-hydroxyethyl dihydrogen phosphate] returned an IC50 at TEAD3 of 50 µM.
